Earlier results, collected in paper PMC8729037 (European journal of pharmacology, 2019).

Tested on: EGFR
Settings: NSCLC cell lines; ref Moody et al., 2014; cited from earlier work

COc1cc2ncnc(Nc3ccc(F)c(Cl)c3)c2cc1OCCCN1CCOCC1 [Gefitinib]
Effect on neurotensin-induced EGFR tyrosine phosphorylation (in words): reduced
